The target in one experiment is hLXRα (Homo sapiens, UniProt Q13133). The experiment is described as follows: luciferase assay with GAL-4 chimeric hLXRα receptor in human embryonic kidney 293 cells. The experiment is classed as cell-based. Conditions: HEK293, 24 h, read-out: LXRα Efficacy (%) ± SD. As for the experimental part: (§1) All the synthesized compounds were first tested for their ability to activate LXRs by using luciferase assays with GAL-4 chimeric receptors. These were performed by co-transfecting plasmids encoding hLXRα- and β-binding domains fused to GAL-4, with the respective responsive element conjugated with the luciferase reporter gene into the human embryonic kidney 293 cells.
(§2) Cell Culture and Co-transfection Assays. Human embryonic Kidney 293 cells (American Type Culture Collection) were cultured in Dulbecco's Modified Eagle's medium containing 10% of fetal bovine serum at 37° C. in humidified atmosphere of 5% CO2. HEK293 cells (4×10^4 cells per well) were transiently transfected in 48 well plate with the reporter plasmids pMH100X4-TK-luc (100 ng/well), Renilla (22 ng/well) together with 100 ng/well of pCMX-Gal4-RXR, pCMX-Gal4-PPAR-γ, pCMX-Gal4-PXR, pFA-CMV-FXR pCMX-Gal4-LXR-α or pCMX-Gal4-LXR-β plasmids using X-tremeGENE 9 DNA Transfection Reagent (Roche). Six hours after transfection, the cells were treated with the appropriate compound for 24 hours. Luciferase activities were analyzed by luciferase Dual Reporter Assay Systems (Promega) according to the manufacturer's protocol. GAL4-LXRs, GAL4-PPAR-γ, GAL4-RXR and TK-MHC100-luc plasmids were described in Villablanca et al.49 GAL4-PXR was a kind gift of Dr. Enrique Sainz (The Scripps Research Institute, La Jolla, USA). GAL4-FXR was a kind gift of Dr. Daniel Merk (Goethe-University Frankfurt am Main). The results obtained by luciferase assays and reported in Table 1 are from three to five independent experiments.
(§3) Statistical analysis. Data are expressed as mean±SEM and were analyzed for significance by ANOVA with Dunnet's multiple comparison tests. The analysis was performed with Prism software. Data in Table 1 are expressed as EC50±SD. In particular, the standard deviations were obtained by calculating the mean of the EC50 of each experiment (three to five independent experiments). The efficacy (%) of the compounds was calculated as the percentage of the compound effect, in terms of LXRα or β activation, versus 8 μM of 22R—HC±SD. […]

Chains of the proteins cited; added tags and fusions are not shown. Residues count along the entry.
UniProt Q13133, 209-447 limits assumed: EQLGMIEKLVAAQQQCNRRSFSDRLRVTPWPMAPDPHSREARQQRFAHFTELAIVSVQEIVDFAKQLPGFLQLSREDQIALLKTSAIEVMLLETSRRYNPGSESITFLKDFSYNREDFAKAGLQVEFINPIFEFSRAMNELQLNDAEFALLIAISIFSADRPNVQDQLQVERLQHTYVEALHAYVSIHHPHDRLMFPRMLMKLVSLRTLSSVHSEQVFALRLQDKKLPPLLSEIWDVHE
UniProt P55055, 222-460 limits assumed: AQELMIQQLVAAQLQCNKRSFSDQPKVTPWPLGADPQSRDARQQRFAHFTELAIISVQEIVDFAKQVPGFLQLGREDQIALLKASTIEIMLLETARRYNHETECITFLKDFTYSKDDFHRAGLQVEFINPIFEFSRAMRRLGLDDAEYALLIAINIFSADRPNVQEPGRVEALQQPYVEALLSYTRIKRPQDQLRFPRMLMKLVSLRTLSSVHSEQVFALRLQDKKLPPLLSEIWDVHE

The next experiment addresses hLXRβ (Homo sapiens, UniProt P55055). As to the kind of experiment: luciferase assay with GAL-4 chimeric hLXRβ receptor in human embryonic kidney 293 cells. The experiment is classed as cell-based. Conditions: HEK293, 24 h. As for the experimental part:
as §1, §2, §3

The mark [1] stands for this setting: % of compound effect versus 8 μM of 22R-HC.
Setting [2] is: % of compound effect versus 8 μM of 22R-HC, read-out: LXRβ Efficacy (%) ± SD.

The structures appear in SMILES notation. Where two headings read alike, the source gives them in different places.

As to `CC[C@H](C[C@@H](O)[C@@H](C)[C@H]1CC[C@H]2[C@@H]3CC=C4C[C@@H](O)CC[C@]4(C)[C@H]3CC[C@]12C)C(C)C` [Compound 20, (22R)-3β-stigmast-5-ene-3,22-diol], the Emax came to 208 ± 69.3% on hLXRα and 90.8 ± 13.2% on hLXRβ (read-out: LXRβ Efficacy (%) ± SD, % of compound effect versus 8 μM of 22R-HC).

With `CC[C@@H](C(C)C)[C@H](O)C[C@@H](C)[C@H]1CC[C@H]2[C@@H]3CC=C4C[C@@H](O)CC[C@]4(C)[C@H]3CC[C@]12C` [Compound 19, (23R)-3β-Stigmast-5-ene-3,23-diol], the Emax at hLXRα (setting [1]) was 489 ± 70.1%; at hLXRβ (setting [2]), 115 ± 2.8%.

Take `CC(C)[C@@H](C)C[C@H](O)[C@@H](C)[C@H]1CC[C@H]2C3=CC=C4C[C@@H](O)CC[C@]4(C)[C@H]3CC[C@]12C` [Compound 22, (22S)-3β-Ergost-5,7-diene-3,22-diol]: the Emax at hLXRα (setting [1]) is 74.7 ± 11.1%; on hLXRβ (setting [2]) it was 41.9 ± 19.2%.

(Values after patent US20200157135A1, “SIDE-CHAIN MODIFIED ERGOSTEROL AND STIGMASTEROL DERIVATIVES AS LIVER X RECEPTOR MODULATORS” (Ospedale San Raffaele srl, priority 2017, published 2020).)
